Results published in patent US8088886B2, “Lipoprotein associated phospholipase A2, inhibitors thereof and use of the same in diagnosis and therapy” (Smith-Kline Beecham P.L.C., priority 1993, dated 2012).

By UniProt entry, the sequences of proteins in these tests, tags left out. Residues count along the entry.
UniProt Q13093, 22-441 limits assumed: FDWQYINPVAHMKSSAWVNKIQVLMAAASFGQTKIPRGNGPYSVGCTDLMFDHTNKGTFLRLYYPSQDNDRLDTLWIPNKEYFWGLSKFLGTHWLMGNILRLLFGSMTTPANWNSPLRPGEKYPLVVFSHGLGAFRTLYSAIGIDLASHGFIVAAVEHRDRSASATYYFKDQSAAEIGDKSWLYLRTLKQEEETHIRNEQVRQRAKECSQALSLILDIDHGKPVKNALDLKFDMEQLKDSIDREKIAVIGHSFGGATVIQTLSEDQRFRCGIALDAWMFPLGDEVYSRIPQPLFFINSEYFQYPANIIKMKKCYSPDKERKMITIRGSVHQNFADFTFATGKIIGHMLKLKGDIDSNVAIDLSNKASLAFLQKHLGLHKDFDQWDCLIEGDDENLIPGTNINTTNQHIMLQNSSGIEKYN

Legend:
Lp-PLA2 = Lp-PLA2 (Homo sapiens, UniProt Q13093); assay: Screen for Lp-PLA2 inhibition (turnover of artificial substrate (A), absorbance at 405 nm); details: 37° C., pH 7.4, 10 min pre-incubation, 20 μM substrate (A); tested form: drawn as phosphate monoanion, counter-io
Description: 1. Screen for Lp-PLA2 Inhibition.
Enzyme activity was determined by measuring the rate of turnover of the artificial substrate (A) at 37° C. in 50 mM HEPES (N-2-hydroxyethylpiperazine-N′-2-ethanesulphonic acid) buffer containing 150 mM NaCl, pH 7.4.
Assays were performed in 96 well titre plates.
Lp-PLA2 was pre-incubated at 37° C. with vehicle or test compound for 10 min in a total volume of 180 μl. The reaction was then initiated by the addition of 20 μl 10× substrate (A) to give a final substrate concentration of 20 μM. The reaction was followed at 405 nm for 20 minutes using a plate reader with automatic mixing. The rate of reaction was measured as the rate of change of absorbance.

human LDL = human LDL (Homo sapiens, UniProt Q13093); assay: Inhibition of Cu2+ stimulated lyso-phosphatidylcholine (lyso-PtdCho) formation in LDL; details: read-out: IC50 for inhibition of LDL lyso-PtdCho accumulation stimulated by copper ions; human LDL 0.25 mg protein/ml, 15 min pre-incubation at 37° C., 5 μM Cu2+; tested form: drawn as phosphate monoanion, counter-io
Description: 3. Inhibition of Cu^2+ Stimulated lyso-phosphatidylcholine (lyso-PtdCho) Formation.
A 1 ml aliquot of human LDL (0.25 mg protein/ml) was incubated for 15 min at 37° C. with compound or vehicle. 5 μM Cu^2+ was then added to allow oxidation/lyso-PtdCho formation to occur. The incubation was terminated by the addition of 3.75 ml chloroform/methanol/c HCl (200:400:5, v/v/v). Following the addition of 1.25 ml chloroform and 1.25 ml 0.1M HCl, the mixture was vortexed and centrifuged. The lower phase was carefully removed and the upper phase re-extracted with an equal volume of synthetic lower phase. The extracts were pooled and dried under nitrogen.
Phospholipids were reconstituted into 50 μl chloroform/methanol (2:1 v/v). 10 μl aliquots were spotted on to pre-run silica gel HPTLC plates and then developed in chloroform/methanol 25-30% methylamine (60:20:5 v/v/v). Plates were subsequently sprayed with the flourescent indicator, 2-p-toluidinylnaphthalene-6-sulphonic acid (1 mM in 50 mM Trs/HCl, pH 7.4) to identify phospholipid components. Fluorescence was measured at 222 nm using a CAMAG TLC scanner. Lipoprotein lyso-PtdCho content was quantified using a standard curve (0.05-0.5 μg) prepared in parallel.

LDL = assay: Copper stimulated LDL oxidation (conjugate diene formation, absorption at 234 nm); details: copper (5 μM)-stimulated LDL (150 μg/ml), absorbance at 234 nm vs control vehicle, FIG. 1; tested form: drawn as phosphate monoanion, counter-io
Description: 2. Copper Stimulated LDL Oxidation:
Copper stimulated oxidation of LDL is routinely measured by following the increase in conjugate diene formation by monitoring the change in absorption at 234 nm. This assay can be used to study inhibitors of oxidative modification of LDL.
FIG. 1 is a graph of absorbance at 234 nm against time (min) in a study of inhibition of copper (5 μM)-stimulated LDL (150 μg/ml) oxidation by compound 4 vs control vehicle.

SMILES	IC50 (Lp-PLA2) [µM]	IC50 (human LDL) [µM]	inhibition of LDL oxidation (lag phase of conjugate diene formation) (LDL)
CCCCCCCCCCCCCCCCCCOC[C@H](COP(=O)(O)OCCO)NC(C)=O	0.45		
CCCCCCCCCCCCCCCCCCOC[C@H](COP(=O)(O)OCCOC(C)=O)NC(C)=O	0.2		
CCCCCCCCCCCCCCCCCCOC[C@H](COP(=O)(O)OCCSC)NC(C)=O	0.08	30	prolongation of the lag phase
